Assay results reported in publication PMC5908791 (Nature Communications, 2018).

The chains behind the UniProt entries cited, without tags or fusion partners. Residues count along the entry.
UniProt O15524, 53-211, chain 1 of 3: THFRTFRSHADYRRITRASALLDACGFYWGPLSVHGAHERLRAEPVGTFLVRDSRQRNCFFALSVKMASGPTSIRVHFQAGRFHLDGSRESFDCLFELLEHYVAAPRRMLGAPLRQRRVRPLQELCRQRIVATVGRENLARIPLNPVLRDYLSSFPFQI

B1: JAK2 activation loop phosphopeptide (peptide)
chain: VLPQDKEYYKVKEPGE
modifications: doubly-phosphorylated (phosphotyrosines)
B2: TYK2 activation loop phosphopeptide (peptide)
chain: VPEGHEYYRVREDGD
modifications: doubly-phosphorylated (phosphotyrosines)
B3: JAK3 activation loop phosphopeptide (peptide)
chain: LLPLDKDYYVVREPGQ
modifications: doubly-phosphorylated (phosphotyrosines)

Biological target: T1, human SOCS1 (residues 53-211) in complex with Elongins B and C (human, UniProt O15524 53-211; Q15370 1-118; Q15369 17-112)
T1 construct: SOCS1, human, residues 53-211; phenylphosphate removed by buffer exchange before assays; also called SOCS1/BC; SOCS1/ElonginBC; source: E. coli BL21(DE3), the three chains co-expressed, purified (GSH-agarose, TEV cleavage, Superdex 200); not shown: GST, N-terminal, cleaved; copies: + +
Test: ITC; 10-40 μM SOCS1/ElonginBC in the cell, 80-400 μM phosphopeptide injected; 25 °C; 20 mM Tris-HCl pH 7.5, 150 mM NaCl, 2 mM β-mercaptoethanol
Conditions: both partners purified

Kd, < 1 µM:
B1, B2, B3
